Test results as given in US11285219B2, “Peptide-oligourea hybrid compounds” (UREKA SARL, priority 2019, dated 2022).

Biological target: T1, mouse GLP-1 receptor endogenously expressed in βTC6 cells (Mus musculus, UniProt O35659)
T1 construct: host or cells: βTC6 cells
T1 sequence (O35659 22-463): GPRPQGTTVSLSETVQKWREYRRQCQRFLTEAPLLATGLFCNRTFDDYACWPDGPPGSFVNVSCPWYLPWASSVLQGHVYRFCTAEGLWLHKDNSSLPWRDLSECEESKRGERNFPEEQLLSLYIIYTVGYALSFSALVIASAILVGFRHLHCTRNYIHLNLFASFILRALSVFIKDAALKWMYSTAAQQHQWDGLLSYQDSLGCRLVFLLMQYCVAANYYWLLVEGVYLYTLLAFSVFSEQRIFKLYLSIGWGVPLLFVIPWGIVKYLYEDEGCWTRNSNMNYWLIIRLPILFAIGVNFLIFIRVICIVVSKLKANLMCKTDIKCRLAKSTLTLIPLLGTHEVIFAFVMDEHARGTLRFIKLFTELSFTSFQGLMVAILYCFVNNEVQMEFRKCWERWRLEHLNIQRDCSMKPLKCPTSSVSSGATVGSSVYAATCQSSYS
Assay: cAMP production functional assay (HTRF), agonist activity at GLP-1R
Format: cell-based
Settings: Table 1
Procedure: The agonistic activity of these hybrids were obtained by functional assays using cells expressing the […] and by measuring the receptor-mediated cAMP produced (see supporting information).
In vitro pharmacology (EC50). […] Following incubation, the cells were lysed and the fluorescence acceptor (D2-labeled cAMP) and fluorescence donor (anti-cAMP antibody labeled with europium cryptate) were added.

Row | Potency (%), percentage of potency compare to GLP-1-G^2 | Structure (SMILES)
1 | 0.07% | CC[C@H](C)[C@H](NC(=O)[C@H](Cc1ccccc1)NC(=O)[C@H](CCC(=O)O)NC(=O)[C@H](CCCCN)NC(=O)[C@H](C)NC(=O)[C@H](C)NC(=O)[C@H](CCC(N)=O)NC(=O)CNC(=O)[C@H](CCC(=O)O)NC(=O)[C@H](CC(C)C)NC(=O)[C@H](Cc1ccc(O)cc1)NC(=O)[C@H](CO)NC(=O)[C@H](CO)NC(=O)[C@@H](NC(=O)[C@H](CC(=O)O)NC(=O)[C@H](CO)NC(=O)[C@@H](NC(=O)[C@H](Cc1ccccc1)NC(=O)[C@@H](NC(=O)CNC(=O)[C@H](CCC(=O)O)NC(=O)CNC(=O)[C@@H](N)Cc1c[nH]cn1)[C@@H](C)O)[C@@H](C)O)C(C)C)C(=O)N[C@@H](C)C(=O)N[C@@H](C)CNC(=O)N[C@@H](C)CNC(=O)N[C@@H](C)CNC(=O)NCC(=O)N[C@@H](CCCNC(=N)N)C(=O)NCC(N)=O [Compound 19, GG2[A^UA^UA^U]^25-28]
2 | 0.9% | CC[C@H](C)[C@H](NC(=O)[C@H](Cc1ccccc1)NC(=O)[C@H](CCC(=O)O)NC(=O)[C@H](CCCCN)NC(=O)[C@H](C)NC(=O)[C@H](C)NC(=O)[C@H](CCC(N)=O)NC(=O)CNC(=O)[C@H](CCC(=O)O)NC(=O)[C@H](CC(C)C)NC(=O)[C@H](Cc1ccc(O)cc1)NC(=O)[C@H](CO)NC(=O)[C@H](CO)NC(=O)[C@@H](NC(=O)[C@H](CC(=O)O)NC(=O)[C@H](CO)NC(=O)[C@@H](NC(=O)[C@H](Cc1ccccc1)NC(=O)[C@@H](NC(=O)CNC(=O)[C@H](CCC(=O)O)NC(=O)CNC(=O)[C@@H](N)Cc1c[nH]cn1)[C@@H](C)O)[C@@H](C)O)C(C)C)C(=O)N[C@@H](C)C(=O)N[C@@H](Cc1c[nH]c2ccccc12)C(=O)N[C@@H](C)CNC(=O)N[C@@H](C)CNC(=O)N[C@@H](C)CNC(=O)N[C@@H](CCCNC(=N)N)C(=O)NCC(N)=O [Compound 20, GG2[A^UA^UA^U]^26-29]
3 | 8% | CC[C@H](C)[C@H](NC(=O)[C@H](Cc1ccccc1)NC(=O)[C@H](CCC(=O)O)NC(=O)[C@H](CCCCN)NC(=O)[C@H](C)NC(=O)[C@H](C)NC(=O)[C@H](CCC(N)=O)NC(=O)CNC(=O)[C@H](CCC(=O)O)NC(=O)[C@H](CC(C)C)NC(=O)[C@H](Cc1ccc(O)cc1)NC(=O)[C@H](CO)NC(=O)[C@H](CO)NC(=O)[C@@H](NC(=O)[C@H](CC(=O)O)NC(=O)[C@H](CO)NC(=O)[C@@H](NC(=O)[C@H](Cc1ccccc1)NC(=O)[C@@H](NC(=O)CNC(=O)[C@H](CCC(=O)O)NC(=O)CNC(=O)[C@@H](N)Cc1c[nH]cn1)[C@@H](C)O)[C@@H](C)O)C(C)C)C(=O)N[C@@H](C)C(=O)N[C@@H](Cc1c[nH]c2ccccc12)C(=O)N[C@@H](CC(C)C)C(=O)N[C@@H](C)CNC(=O)N[C@@H](C)CNC(=O)N[C@@H](C)CNC(=O)NCC(N)=O [Compound 21, GG2[A^UA^UA^U]^27-30]
